Results: ChEMBL document CHEMBL4699582, “Discovery of OATD-01, a First-in-Class Chitinase Inhibitor as Potential New Therapeutics for Idiopathic Pulmonary Fibrosis” (J Med Chem, 2020)
Active and inactive are the calls of the source. No cut-off for these calls is given here.

Chains of the proteins cited; added tags and fusions are not shown. Lines headed by an entry give the natural chain unless they say otherwise; changes in a name come on top.
UniProt Q9BZP6: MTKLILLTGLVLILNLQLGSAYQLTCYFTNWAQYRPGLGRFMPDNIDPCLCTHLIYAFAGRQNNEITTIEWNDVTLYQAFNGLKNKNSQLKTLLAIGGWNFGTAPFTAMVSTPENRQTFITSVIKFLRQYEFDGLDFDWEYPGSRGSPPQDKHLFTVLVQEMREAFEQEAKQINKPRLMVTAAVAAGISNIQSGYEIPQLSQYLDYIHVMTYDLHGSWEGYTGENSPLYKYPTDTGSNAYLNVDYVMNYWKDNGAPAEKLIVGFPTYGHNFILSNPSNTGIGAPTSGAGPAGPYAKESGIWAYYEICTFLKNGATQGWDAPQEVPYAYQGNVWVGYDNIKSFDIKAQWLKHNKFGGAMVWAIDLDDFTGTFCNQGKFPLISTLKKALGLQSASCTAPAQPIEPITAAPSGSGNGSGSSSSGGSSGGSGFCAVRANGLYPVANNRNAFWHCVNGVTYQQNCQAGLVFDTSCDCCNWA

Experiments:
[1] = biological target: Acidic mammalian chitinase (Homo sapiens, UniProt Q9BZP6); assay: Inhibition of full-length C-terminal his-tagged human AMCase expressed in CHO-K1 cells assessed as reduction in chitinolytic activity using 4-methylumbelliferyl-beta-D-N,N-diacetylchitobioside hydrate as substrate after 60 mins by fluorometric assay; assay type: cell-based
Mus musculus = species: Mus musculus; conditions: C57BL/6N, dose 100.0 mg/kg

Row | IC50 [1] | Compound | inhibition (Mus musculus)
1 | 8.9 nM | COC[C@H]1CN(C2CCN(c3nc(N)n[nH]3)CC2)[C@@H](Cc2ccc(Cl)cc2)CO1 | –
2 | – | COC(=O)c1ccc2c(c1)NC(=O)/C2=C(\Nc1ccc(N(C)C(=O)CN2CCN(C)CC2)cc1)c1ccccc1 | inactive
